Test results: patent US20170275249A1, “SMALL LIPOPEPTIDOMIMETIC INHIBITORS OF GHRELIN O-ACYL TRANSFERASE” (THE REGENTS OF THE UNIVERSITY OF CALIFORNIA, priority 2014, published 2017)

Sequences of proteins named here, by UniProt entry; tags and fusion partners are left off.
UniProt P0C7A3, whole entry: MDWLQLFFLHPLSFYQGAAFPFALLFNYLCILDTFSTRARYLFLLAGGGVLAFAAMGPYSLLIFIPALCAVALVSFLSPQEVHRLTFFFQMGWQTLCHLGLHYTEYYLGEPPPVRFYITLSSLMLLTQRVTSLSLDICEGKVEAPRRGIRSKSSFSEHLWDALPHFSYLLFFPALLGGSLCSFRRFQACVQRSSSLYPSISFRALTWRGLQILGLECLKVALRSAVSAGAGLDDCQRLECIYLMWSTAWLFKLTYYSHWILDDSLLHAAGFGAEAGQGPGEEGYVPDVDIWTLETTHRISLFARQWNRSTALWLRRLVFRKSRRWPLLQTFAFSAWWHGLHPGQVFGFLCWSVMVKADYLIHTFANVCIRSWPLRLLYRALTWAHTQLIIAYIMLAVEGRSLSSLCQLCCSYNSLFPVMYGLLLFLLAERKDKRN

Molecular target: mouse GOAT (Mus musculus, UniProt P0C7A3)
Assay: ghrelin radio-octanoylation assay (Yang et al.), Sf9 membrane fractions
Conditions: Table 1, inhibitory activity against GOAT, cells printed in nM
Description: In vitro activity was quantified using the octanoylation assay developed by Yang et al. (2008, Proc. Natl. Acad. Sci. USA 105:10750-10755). No pure or soluble form of GOAT that retains enzymatic activity is thus far available. Recombinant poly-His-tagged ghrelin was incubated with radiolabeled octanoyl CoA and membrane fractions isolated from Sf9 cells infected with a GOAT-encoding baculovirus. Recovery of acyl- and des-acyl ghrelin using a Ni^2+ affinity column was followed by scintillation counting to determine the extent of acyltransferase activity, which was reported as a percentage of control.
Thiosarcosine derived peptidomimetic Compound 1 (of Example 1.1) and truncated analog Compound 2 (of Example 1.2), which served as a negative control, were screened for GOAT-inhibiting activity using membrane fractions prepared from Sf9 cells infected with baculovirus encoding mouse GOAT as a source of the acyltransferase. The assay detected specific acyl transfer from tritiated octanoyl-CoA to recombinant His-tagged proghrelin.

In the case of `CCCC[C@H]1C[C@@H](C(=O)NC[C@H]2CCCN2C(=O)[C@@H](NC(=S)CNC)C(C)(C)C)C1`, the IC50 was 30 nM.

`CCCC[C@H]1C[C@H](C(=S)NC[C@H]2CCCN2C(=O)[C@@H](NC(=S)CN)C(C)(C)C)C1` [Entry 16, (1s,3R)—N—(((R)-1-((S)-2-(2-AMINOETHANETHIOAMIDO)-3,3-DIMETHYLBUTANOYL)PYRROLIDIN-2-YL)METHYL)-3-BUTYLCYCLOBUTANECARBOTHIOAMIDE] gave an IC50 of 70 nM.
